Results as given in ChEMBL document CHEMBL1781997, “Anticonvulsant 4-aminobenzenesulfonamide derivatives with branched-alkylamide moieties: X-ray crystallography and inhibition studies of human carbonic anhydrase isoforms I, II, VII, and XIV” (J Med Chem, 2011).

Molecular target: Carbonic anhydrase 2 (Homo sapiens, UniProt P00918)

Work on `NS(=O)(=O)c1ccc(NC(=O)Cc2ccccc2)cc1` yielded a Ki of 9 nM.
